The test deals with LIM domain kinase 2 (Homo sapiens, UniProt P53671).

The chains behind the UniProt entries cited, without tags or fusion partners. Where a name states a change or a piece, a line headed by the entry shows the natural chain unless it says otherwise.
UniProt P53671: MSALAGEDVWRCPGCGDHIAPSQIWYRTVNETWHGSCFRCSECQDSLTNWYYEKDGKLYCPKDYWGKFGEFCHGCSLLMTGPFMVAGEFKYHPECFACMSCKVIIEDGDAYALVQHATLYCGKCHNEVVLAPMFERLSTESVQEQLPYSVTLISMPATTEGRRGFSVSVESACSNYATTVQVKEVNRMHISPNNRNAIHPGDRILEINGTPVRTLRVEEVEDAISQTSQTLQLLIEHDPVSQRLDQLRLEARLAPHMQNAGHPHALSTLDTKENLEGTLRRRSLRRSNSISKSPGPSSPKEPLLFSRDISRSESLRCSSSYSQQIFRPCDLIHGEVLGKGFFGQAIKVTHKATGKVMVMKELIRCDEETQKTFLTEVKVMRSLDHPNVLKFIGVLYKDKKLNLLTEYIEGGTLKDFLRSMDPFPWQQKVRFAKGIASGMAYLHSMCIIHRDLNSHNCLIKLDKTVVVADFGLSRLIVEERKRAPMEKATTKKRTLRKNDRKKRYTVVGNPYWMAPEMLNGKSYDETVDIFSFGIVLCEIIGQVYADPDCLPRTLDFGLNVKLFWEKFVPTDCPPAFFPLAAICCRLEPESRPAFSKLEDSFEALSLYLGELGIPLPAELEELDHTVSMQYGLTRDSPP

A word on the Ki: it is a dissociation constant, usually derived from enzyme kinetics or from competition with a known ligand. Consider `Cc1c[nH]c2ncnc(C3=CC(C)N(C(=O)Nc4cccc(Cl)c4)C(C)C3)c12` (stereo unspecified) [US20230312576, Compound 63], for which the inhibitory constant (Ki) was 8.49 nM.

The values are drawn from BindingDB's records for patent US20230312576 (Centre National De La Recherche Scientifique, 2023).
